# Columns and labels:
# [1] = test system: fentanyl OIRD (integrated phrenic nerve activity, iPNA); details: for reversal of fentanyl silencing of iPNA: 5 μg/kg i.v. after fentanyl 20 μg/kg i.v.
# [2] = test system: integrated phrenic nerve activity (iPNA); opioid OIRD
# [3] = test system: fentanyl OIRD (breaths per minute); test: Fentanyl OIRD in spontaneously breathing anesthetized mice; details: oxytocin 100 μg/kg i.v., fentanyl 10 μg/kg i.v.
# [4] = test system: fentanyl OIRD (breathing, inspiratory events); test: Fentanyl OIRD in conscious, unrestrained rats (subpleural thoracic pressure telemetry)
# [5] = oxytocin 80 μg/kg i.v. pretreatment, fentanyl 20 μg/kg i.v., CIHHC rats
# [6] = 375 pmol/side bilateral, fentanyl 20 μg/kg i.v., CIHHC rats
# [7] = co-administration fentanyl 100 μg/kg + oxytocin 150 μg/kg i.v.
# [8] = freely moving rat, fentanyl 100 μg/kg i.v., oxytocin 150 μg/kg i.v. at 290 s post-fentanyl
Compound,"prevention of iPNA silencing by systemic fentanyl ([1]; carbetocin 115 μg/kg i.v., fentanyl 20 μg/kg i.v., CIHHC rats)",reversal of fentanyl silencing of iPNA [1],efficacy of reversal at very high dose compared to lower doses ([1]; OXTN 50 μg/kg i.v.),"shape of dose-response curve for reversal of fentanyl OIRD ([1]; OXTN i.v. up to 50 μg/kg, fentanyl 20 μg/kg i.v.)","depression of iPNA burst amplitude after fentanyl [1, 5]","prevention of fentanyl-induced iPNA burst silencing [1, 5]","attenuation of iPNA inhibition by systemic fentanyl ([1]; oxytocin 80 μg/kg i.v. pretreatment, fentanyl 20 μg/kg i.v., normoxic rats)","attenuation of iPNA inhibition by systemic fentanyl, PVN oxytocin before fentanyl [2, 6]","rescue of iPNA inhibition by systemic fentanyl, PVN oxytocin after fentanyl [2, 6]","prevention of systemic fentanyl respiratory depression by PVN oxytocin ([2]; 1.25 μg/side, fentanyl 20 μg/kg i.v., PVN ibotenic acid treated rats)","reversal of arrest of breathing caused by systemic fentanyl, PVN OXT ([2]; CIHHC rat modeling SA (FIG. 8B))",reduction of fentanyl-induced OIRD by PVN oxytocin ([2]; CIHHC-treated rat (FIG. 8A)),reversal of systemic fentanyl OIRD [3],"recovery of breathing after co-administration [4, 7]","time for the same number of breaths that spanned 290 s post-fentanyl alone [4, 7]","attenuation of OIRD by co-administration with fentanyl ([4]; cocktail 100 μg/kg FENT + 150 μg/kg OXTN i.v., freely moving rat)","breathing frequency after oxytocin rescue [4, 8]","rescue of lethal fentanyl OIRD [4, 8]"
CC[C@H](C)[C@@H]1NC(=O)[C@H](Cc2ccc(OC)cc2)NC(=O)CCCSC[C@@H](C(=O)N2CCC[C@H]2C(=O)N[C@@H](CC(C)C)C(=O)NCC(N)=O)NC(=O)[C@H](CC(N)=O)NC(=O)[C@H](CCC(N)=O)NC1=O,similarly prevents iPNA silencing,–,–,–,–,–,–,–,–,–,–,–,–,–,–,–,–,–
NC(=O)CC[C@@H]1NC(=O)[C@H](Cc2ccccc2)NC(=O)[C@H](Cc2ccc(O)cc2)NC(=O)[C@@H](N)CSSC[C@@H](C(=O)N2CCC[C@H]2C(=O)N[C@@H](CCCN=C(N)N)C(=O)NCC(N)=O)NC(=O)[C@H](CC(N)=O)NC1=O,–,does not reverse fentanyl,–,–,–,–,–,–,–,–,–,–,–,–,–,–,–,–
CC[C@H](C)[C@@H]1NC(=O)[C@H](Cc2ccc(O)cc2)NC(=O)[C@@H](N)CSSC[C@@H](C(=O)N2CCC[C@H]2C(=O)N[C@@H](CC(C)C)C(=O)NCC(N)=O)NC(=O)[C@H](CC(N)=O)NC(=O)[C@H](CCC(N)=O)NC1=O [oxytocin],–,robustly reinitiates iPNA burst firing,reduced efficacy,bell-shaped response curve,30-40%,"prevents fentanyl (20 μg/kg, i.v.)-induced iPNA burst silencing",attenuates iPNA inhibition,attenuate,rescue iPNA inhibition,not prevented,rapidly and completely reverses the arrest of breathing,effectively blunts fentanyl-induced OIRD,reverses systemic fentanyl OIRD,recovered nearly to baseline cadence,123 s,largely attenuated OIRD,recovered to exceed baseline frequency,rescued lethal fentanyl OIRD

# — patent publication US20240100120A1 (priority 2019, published 2024)
